This passage reports elastin cleavage fluorescence results from US20170306050.

The chains behind the UniProt entries cited, without tags or fusion partners.
α1-antitrypsin, P01009, UniProt P01009, whole entry, looked up: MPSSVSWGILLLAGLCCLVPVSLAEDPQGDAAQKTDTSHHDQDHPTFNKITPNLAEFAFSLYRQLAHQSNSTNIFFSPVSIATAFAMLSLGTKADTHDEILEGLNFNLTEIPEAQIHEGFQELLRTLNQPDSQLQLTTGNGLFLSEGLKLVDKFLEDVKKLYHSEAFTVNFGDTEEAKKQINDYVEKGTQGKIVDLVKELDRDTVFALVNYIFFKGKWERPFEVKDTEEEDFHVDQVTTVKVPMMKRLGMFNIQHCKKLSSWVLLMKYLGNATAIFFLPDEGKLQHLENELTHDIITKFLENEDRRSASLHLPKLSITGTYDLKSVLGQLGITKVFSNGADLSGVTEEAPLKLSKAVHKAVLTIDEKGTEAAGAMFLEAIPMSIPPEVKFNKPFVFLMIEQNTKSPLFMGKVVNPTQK

In this data set the target is α1-antitrypsin, P01009.

B1: human neutrophil elastase (protein)
chain: IVGGRRARPHAWPFMVSLQLRGGHFCGATLIAPNFVMSAAHCVANVNVRAVRVVLGAHNLSRREPTRQVFAVQRIFENGYDPVNLLNDIVILQLNGSATINANVQVAQLPAQGRRLGNGVQCLAMGWGLLGRNRGIASVLQELNVTVVTSLCRRSNVCTLVRGRQAGVCFGDSGSPLVCNGLIHGIASFVRGGCASGLYPDAFAPVAQFVNWIDSIIQ
Consider B1, for which the elastin cleavage fluorescence entry was “Intact α1-antitrypsin inhibited neutrophil elastase, indicated by a lack of elastin fluorescence”.
